Results from patent US20220387345A1, “ANTI-CANCER COMPOUNDS ACTING AS NON-PGP SUBSTRATE” (ASCENTAWITS PHARMACEUTICALS, LTD., priority 2019, published 2022).

By UniProt entry, the sequences of proteins in these tests, tags left out.
UniProt P08183, whole entry: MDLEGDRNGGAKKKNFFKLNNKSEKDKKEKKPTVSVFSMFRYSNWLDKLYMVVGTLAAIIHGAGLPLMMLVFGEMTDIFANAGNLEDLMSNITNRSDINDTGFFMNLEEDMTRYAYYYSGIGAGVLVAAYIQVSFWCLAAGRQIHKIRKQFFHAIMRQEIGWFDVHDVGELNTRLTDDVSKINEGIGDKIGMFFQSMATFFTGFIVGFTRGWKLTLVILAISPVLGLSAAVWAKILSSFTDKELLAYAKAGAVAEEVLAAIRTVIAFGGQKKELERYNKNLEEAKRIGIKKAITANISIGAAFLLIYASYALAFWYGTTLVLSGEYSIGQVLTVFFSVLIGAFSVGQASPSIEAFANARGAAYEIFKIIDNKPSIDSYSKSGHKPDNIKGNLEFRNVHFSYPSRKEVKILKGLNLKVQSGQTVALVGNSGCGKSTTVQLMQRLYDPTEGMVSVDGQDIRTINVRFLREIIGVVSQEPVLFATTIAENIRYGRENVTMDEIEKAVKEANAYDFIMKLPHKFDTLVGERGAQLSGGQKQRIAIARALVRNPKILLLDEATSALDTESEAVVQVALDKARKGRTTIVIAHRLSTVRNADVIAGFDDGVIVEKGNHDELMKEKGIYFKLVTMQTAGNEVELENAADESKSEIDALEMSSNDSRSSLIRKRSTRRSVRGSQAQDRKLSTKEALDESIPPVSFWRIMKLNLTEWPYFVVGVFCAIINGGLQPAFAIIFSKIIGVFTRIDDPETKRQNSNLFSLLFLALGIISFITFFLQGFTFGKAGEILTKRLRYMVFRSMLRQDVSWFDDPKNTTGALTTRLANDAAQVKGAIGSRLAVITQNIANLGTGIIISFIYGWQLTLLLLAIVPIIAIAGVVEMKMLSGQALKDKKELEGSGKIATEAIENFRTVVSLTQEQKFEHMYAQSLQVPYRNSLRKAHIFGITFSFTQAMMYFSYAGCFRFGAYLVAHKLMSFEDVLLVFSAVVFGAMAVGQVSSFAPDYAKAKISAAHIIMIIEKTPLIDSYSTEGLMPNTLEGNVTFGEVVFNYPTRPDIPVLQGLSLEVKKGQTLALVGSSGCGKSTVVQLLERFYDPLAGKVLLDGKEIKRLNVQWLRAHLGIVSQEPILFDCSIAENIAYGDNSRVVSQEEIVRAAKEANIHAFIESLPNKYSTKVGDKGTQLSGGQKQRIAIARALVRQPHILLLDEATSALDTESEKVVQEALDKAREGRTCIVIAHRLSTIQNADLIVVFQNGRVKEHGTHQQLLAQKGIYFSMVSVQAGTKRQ

Target: P-glycoprotein (P-GP) (Homo sapiens, UniProt P08183)
Test: Evaluation as P-Gp substrate: penetration test in MDCKII-MDR1 cells with Verapamil as inhibitor
Conditions: MDCKII-MDR1 cell monolayer, 2 h at 37° C., Papp(B-A)/Papp(A-B), in the absence of Verapamil

COCCc1ccc(OCC(O)CNC(C)C)cc1 (stereo not shown) [Metoptolol, reference compound]
Efflux ratio (MDCK-MDR1) Without Verapamil: 0.96
